Among the data in patent US6936585B2, “Corticotropin releasing factor 2 receptor agonists” (priority 2002, dated 2005) are EC50 and Emax values, retold here.

In general, EC50 refers to the concentration at which the effect is half-maximal. For orientation: Emax means the size of the effect at its maximum, as opposed to the concentration needed.

The target of experiment [1] is T1, CRF2R (Homo sapiens, UniProt Q13324).
T1 sequence (Q13324 1-411): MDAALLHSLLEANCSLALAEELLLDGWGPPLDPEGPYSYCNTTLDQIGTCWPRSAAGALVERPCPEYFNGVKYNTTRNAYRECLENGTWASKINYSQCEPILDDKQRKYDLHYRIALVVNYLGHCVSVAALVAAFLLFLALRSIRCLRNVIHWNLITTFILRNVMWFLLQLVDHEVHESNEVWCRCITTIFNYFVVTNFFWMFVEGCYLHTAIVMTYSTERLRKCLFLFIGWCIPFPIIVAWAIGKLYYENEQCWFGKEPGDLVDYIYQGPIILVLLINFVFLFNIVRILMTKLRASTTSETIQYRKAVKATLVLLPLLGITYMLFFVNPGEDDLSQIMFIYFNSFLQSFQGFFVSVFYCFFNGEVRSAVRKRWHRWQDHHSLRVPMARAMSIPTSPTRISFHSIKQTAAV
Description: CRF2R agonist activation (EC50 / Emax), called comparative CRF binding. In kind it is cell-based. The settings on record: for Emax: read-out: CRF2R Emax. The essentials:
(§1)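 Cells expressing full-length human CRF1R or CRF2R were exposed to peptide or vehicle control, and receptor activation was gauged as cAMP induction. cAMP was measured in cell lysates or via a cAMP-responsive element driving a reporter gene such as luciferase, CAT, GFP or alkaline phosphatase.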

Experiment [2] concerns the target T2, CRF1R (Homo sapiens, UniProt P34998).
T2 sequence (P34998 24-415): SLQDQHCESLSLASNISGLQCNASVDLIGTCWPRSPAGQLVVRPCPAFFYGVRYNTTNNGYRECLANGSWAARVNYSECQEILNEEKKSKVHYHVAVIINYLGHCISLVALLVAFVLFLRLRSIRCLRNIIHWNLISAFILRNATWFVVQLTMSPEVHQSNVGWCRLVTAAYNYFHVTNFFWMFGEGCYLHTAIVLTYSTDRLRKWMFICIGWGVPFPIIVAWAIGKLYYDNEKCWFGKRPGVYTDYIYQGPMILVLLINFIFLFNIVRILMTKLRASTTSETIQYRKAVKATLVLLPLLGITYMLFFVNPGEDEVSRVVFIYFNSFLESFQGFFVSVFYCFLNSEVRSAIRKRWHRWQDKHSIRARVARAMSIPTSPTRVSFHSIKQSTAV
The experiment is described as follows: CRF1R agonist activation (EC50 / Emax), called comparative CRF binding. The class given is cell-based. The settings on record: for EC50: CRF1R EC50; for Emax: read-out: CRF1R Emax. In short, it runs like this:
as §1

For `CC[C@H](C)[C@H](NC(=O)[C@@H](NC(=O)[C@H](CC(=O)O)NC(=O)[C@H](CC(C)C)NC(=O)[C@H](CC(C)C)NC(=O)[C@H](CC(C)C)NC(=O)[C@H](C)NC(=O)[C@H](CC(N)=O)NC(=O)[C@H](CC(N)=O)NC(=O)[C@H](C)NC(=O)[C@H](C)NC(=O)[C@H](CCC(N)=O)NC(=O)[C@H](CCC(N)=O)NC(=O)[C@H](CCCCN)NC(=O)[C@H](CCC(=O)O)NC(=O)[C@H](CCCCN)NC(=O)[C@H](CCC(=O)O)NC(=O)[C@H](CCC(N)=O)NC(=O)[C@H](CCCCN)NC(=O)[C@H](CCC(=O)O)NC(=O)[C@@H](NC(=O)[C@H](CCC(=O)O)NC(=O)[C@@H](NC(=O)[C@H](CCSC)NC(=O)[C@H](CCCCN)NC(=O)[C@H](CCCNC(=N)N)NC(=O)[C@H](CC(C)C)NC(=O)[C@H](CC(C)C)NC(=O)[C@H](Cc1c[nH]cn1)NC(=O)[C@H](CC(C)C)NC(=O)[C@@H]1CCCN1C(=O)[C@H](CC(C)C)NC(=O)[C@H](CC(=O)O)NC(=O)[C@@H](NC(=O)[C@H](CO)NC(=O)[C@@H](NC(=O)[C@@H]1CCCN1C(=O)[C@@H]1CCCN1C(=O)CNC(=O)[C@@H]1CCC(=O)N1)[C@@H](C)CC)[C@@H](C)CC)[C@@H](C)CC)[C@@H](C)CC)[C@@H](C)O)C(N)=O` [compound 240], the EC50 in experiment [1] was 22 nM; in experiment [2], 915 nM. Further, the figures for the maximum response (Emax) in experiment [1] and in experiment [2] were 100% and 80%, respectively.

As for `CC[C@H](C)[C@H](NC(=O)[C@@H](NC(=O)[C@H](CC(=O)O)NC(=O)[C@H](CC(C)C)NC(=O)[C@H](CC(C)C)NC(=O)[C@H](CC(C)C)NC(=O)[C@H](CCCNC(=N)N)NC(=O)[C@H](CC(N)=O)NC(=O)[C@H](CC(N)=O)NC(=O)[C@H](C)NC(=O)[C@H](C)NC(=O)[C@H](CCC(N)=O)NC(=O)[C@H](CCC(N)=O)NC(=O)[C@H](CCCCN)NC(=O)[C@H](CCC(=O)O)NC(=O)[C@H](CCCCN)NC(=O)[C@H](CCC(=O)O)NC(=O)[C@H](CCC(N)=O)NC(=O)[C@H](CCCCN)NC(=O)[C@H](CCC(=O)O)NC(=O)[C@@H](NC(=O)[C@H](CCC(=O)O)NC(=O)[C@@H](NC(=O)[C@H](CCSC)NC(=O)[C@H](CCCCN)NC(=O)[C@H](CCCNC(=N)N)NC(=O)[C@H](CC(C)C)NC(=O)[C@H](CC(C)C)NC(=O)[C@H](Cc1ccccc1)NC(=O)[C@H](C)NC(=O)[C@@H]1CCCN1C(=O)[C@H](CC(C)C)NC(=O)[C@H](CC(=O)O)NC(=O)[C@@H](NC(=O)[C@H](CO)NC(=O)[C@@H](NC(=O)[C@@H]1CCCN1C(=O)[C@@H]1CCCN1C(=O)CNC(=O)[C@@H]1CCC(=O)N1)[C@@H](C)CC)[C@@H](C)CC)[C@@H](C)CC)[C@@H](C)CC)[C@@H](C)O)C(N)=O` [compound 222], the EC50 in experiment [1] is 9.4 nM; in experiment [2], 384 nM. The Emax turned out to be 100% in experiment [1] and 95% in experiment [2].

Take `CC[C@H](C)[C@H](NC(=O)[C@@H](NC(=O)[C@H](CC(=O)O)NC(=O)[C@H](CC(C)C)NC(=O)[C@H](CC(C)C)NC(=O)[C@H](CC(C)C)NC(=O)[C@H](CCCNC(=N)N)NC(=O)[C@H](CC(N)=O)NC(=O)[C@H](CC(N)=O)NC(=O)[C@H](C)NC(=O)[C@H](C)NC(=O)[C@H](CCC(N)=O)NC(=O)[C@H](CCC(N)=O)NC(=O)[C@H](CCCCN)NC(=O)[C@H](CCC(=O)O)NC(=O)[C@H](CCCCN)NC(=O)[C@H](CCC(=O)O)NC(=O)[C@H](CCC(N)=O)NC(=O)[C@H](CCCCN)NC(=O)[C@H](CCC(=O)O)NC(=O)[C@@H](NC(=O)[C@H](CCC(=O)O)NC(=O)[C@@H](NC(=O)[C@H](CCSC)NC(=O)[C@H](CCCCN)NC(=O)[C@H](CCCNC(=N)N)NC(=O)[C@H](CC(C)C)NC(=O)[C@H](CC(C)C)NC(=O)[C@H](CCC(N)=O)NC(=O)[C@H](Cc1ccccc1)NC(=O)[C@@H]1CCCN1C(=O)[C@@H](NC(=O)[C@H](CC(=O)O)NC(=O)[C@@H](NC(=O)[C@H](CO)NC(=O)[C@@H](NC(=O)[C@@H]1CCCN1C(=O)[C@@H]1CCCN1C(=O)CNC(=O)[C@@H]1CCC(=O)N1)[C@@H](C)CC)[C@@H](C)CC)C(C)C)[C@@H](C)CC)[C@@H](C)CC)[C@@H](C)O)C(N)=O` [compound 256]: the EC50 was found to be 12.6 nM in experiment [1] and 254 nM in experiment [2]. Besides, the Emax in experiment [1] and in experiment [2] was 100% in each case.

`CC[C@H](C)[C@H](NC(=O)[C@@H](NC(=O)[C@H](CC(=O)O)NC(=O)[C@H](CC(C)C)NC(=O)[C@H](CC(C)C)NC(=O)[C@H](CC(C)C)NC(=O)[C@H](CCCNC(=N)N)NC(=O)[C@H](CC(N)=O)NC(=O)[C@H](CC(N)=O)NC(=O)[C@H](C)NC(=O)[C@H](C)NC(=O)[C@H](CCC(N)=O)NC(=O)[C@H](CCC(N)=O)NC(=O)[C@H](CCCCN)NC(=O)[C@H](CCC(=O)O)NC(=O)[C@H](CCCCN)NC(=O)[C@H](CCC(=O)O)NC(=O)[C@H](CCC(N)=O)NC(=O)[C@H](CCCCN)NC(=O)[C@H](CCC(=O)O)NC(=O)[C@@H](NC(=O)[C@H](CCC(=O)O)NC(=O)[C@@H](NC(=O)[C@H](CCSC)NC(=O)[C@H](CCCCN)NC(=O)[C@H](CCCNC(=N)N)NC(=O)[C@H](CC(C)C)NC(=O)[C@H](CC(C)C)NC(=O)[C@H](CCC(=O)O)NC(=O)[C@H](CC(C)C)NC(=O)[C@@H]1CCCN1C(=O)[C@H](CC(C)C)NC(=O)[C@H](CC(=O)O)NC(=O)[C@@H](NC(=O)[C@H](CO)NC(=O)[C@@H](NC(=O)[C@@H]1CCCN1C(=O)[C@@H]1CCCN1C(=O)CNC(=O)[C@@H]1CCC(=O)N1)[C@@H](C)CC)[C@@H](C)CC)[C@@H](C)CC)[C@@H](C)CC)[C@@H](C)O)C(N)=O` [compound 82]: the Emax was found to be 90% in experiment [1] and 85% in experiment [2].

As for `CC[C@H](C)[C@H](NC(=O)[C@@H](NC(=O)[C@H](CC(=O)O)NC(=O)[C@H](CC(C)C)NC(=O)[C@H](CC(C)C)NC(=O)[C@H](CC(C)C)NC(=O)[C@H](C)NC(=O)[C@H](CC(N)=O)NC(=O)[C@H](CC(N)=O)NC(=O)[C@H](C)NC(=O)[C@H](C)NC(=O)[C@H](CCC(N)=O)NC(=O)[C@H](CCC(N)=O)NC(=O)[C@H](CCCCN)NC(=O)[C@H](CCC(=O)O)NC(=O)[C@H](CCCCN)NC(=O)[C@H](CCC(=O)O)NC(=O)[C@H](CCC(N)=O)NC(=O)[C@H](CCCCN)NC(=O)[C@H](CCC(=O)O)NC(=O)[C@@H](NC(=O)[C@H](CCC(=O)O)NC(=O)[C@@H](NC(=O)[C@H](CCSC)NC(=O)[C@H](CCCCN)NC(=O)[C@H](CCCNC(=N)N)NC(=O)[C@H](CC(C)C)NC(=O)[C@H](CC(C)C)NC(=O)[C@H](Cc1ccc(O)cc1)NC(=O)[C@H](CC(C)C)NC(=O)[C@@H]1CCCN1C(=O)[C@H](CC(C)C)NC(=O)[C@H](CC(=O)O)NC(=O)[C@@H](NC(=O)[C@H](CO)NC(=O)[C@@H](NC(=O)[C@@H]1CCCN1C(=O)[C@@H]1CCCN1C(=O)CNC(=O)[C@@H]1CCC(=O)N1)[C@@H](C)CC)[C@@H](C)CC)[C@@H](C)CC)[C@@H](C)CC)[C@@H](C)O)C(N)=O` [compound 244], the Emax in experiment [1] turned out to be 98%; in experiment [2] it was 100%.

Regarding `CC[C@H](C)[C@H](NC(=O)[C@H](CCCNC(=N)N)NC(=O)[C@H](C)NC(=O)[C@H](CC(N)=O)NC(=O)[C@@H](NC(=O)[C@@H](NC(=O)[C@H](C)NC(=O)[C@H](CCC(N)=O)NC(=O)[C@H](CCC(N)=O)NC(=O)[C@H](CCCCN)NC(=O)[C@H](CCC(=O)O)NC(=O)[C@H](CCCCN)NC(=O)[C@H](CCC(=O)O)NC(=O)[C@H](CCC(N)=O)NC(=O)[C@H](CCCCN)NC(=O)[C@H](CCC(=O)O)NC(=O)[C@@H](NC(=O)[C@H](CCC(=O)O)NC(=O)[C@@H](NC(=O)[C@H](CCSC)NC(=O)[C@H](CCCCN)NC(=O)[C@H](CCCNC(=N)N)NC(=O)[C@H](CC(C)C)NC(=O)[C@H](CC(C)C)NC(=O)[C@H](Cc1ccc(O)cc1)NC(=O)[C@@H](NC(=O)[C@@H]1CCCN1C(=O)[C@H](CC(C)C)NC(=O)[C@H](CC(=O)O)NC(=O)[C@@H](NC(=O)[C@H](CO)NC(=O)[C@@H](NC(=O)[C@@H]1CCCN1C(=O)[C@@H]1CCCN1C(=O)CNC(=O)[C@@H]1CCC(=O)N1)[C@@H](C)CC)[C@@H](C)CC)[C@@H](C)CC)[C@@H](C)CC)[C@@H](C)CC)[C@@H](C)O)[C@@H](C)O)C(=O)N[C@@H](CC(C)C)C(=O)N[C@@H](C)C(=O)N[C@@H](CCCNC(=N)N)C(=O)N[C@H](C(N)=O)C(C)C` [compound 149], in experiment [1], the midpoint of the response, the EC50, lay at 26.2 nM and the Emax came out at 95.5%. For the same molecule, in experiment [2], the EC50 was not below 1000 nM and the Emax stood at 40.7%.
